# Data from ChEMBL document CHEMBL5042543, “Bridged Piperidine Analogues of a High Affinity Naphthalene-Based P2Y14R Antagonist” (J Med Chem, 2022).
# Experiment: Aqueous solubility of the compound at pH 4
# Conditions: buffer
smiles,measurement,value
O=C(O)c1cc(-c2ccc([C@@]3(O)C[C@H]4CC[C@@H](C3)N4)cc2)c2ccc(-c3ccc(C(F)(F)F)cc3)cc2c1,solubility,1.83 µg/mL
